# Values quoted from earlier work, collected in PMC4885489, “Prediction of Drug-Drug Interactions Arising from CYP3A induction Using a Physiologically Based Dynamic Model” (Drug Metabolism and Disposition, 2016).
# How the values were obtained:
# rCYP3A5 = conditions: cited from earlier work
# [1] = ref (Drusano et al., 1986a); cited from earlier work
SMILES,rCYP3A5 Vmax (rCYP3A5) [µL/min/pmol],"rCYP3A5 Vmax (rCYP3A5; second pathway, printed 'oxylation', corrected for fumic & ISEF, ref Meta-analysis (Hirota et al., 2001), (Galetin et al., 2004) (Williams et al., 2002)) [µL/min/pmol]",ka [1] [h⁻¹]
"Cc1nnc2n1-c1ccc(Cl)cc1C(c1ccccc1)=NC2 [Alprazolam, alprazolam]",5.99,2.29,–
"CO[C@H]1/C=C/O[C@@]2(C)Oc3c(C)c(O)c4c(O)c(c(/C=N/N5CCN(C)CC5)c(O)c4c3C2=O)NC(=O)/C(C)=C\C=C\[C@H](C)[C@H](O)[C@@H](C)[C@@H](O)[C@@H](C)[C@H](OC(C)=O)[C@@H]1C [Rifampicin, rifampicin]",–,–,0.51

# Read-outs that look alike come from different tables or passages of the source.
